Results taken from the Human Domainome abundance scans (Beltran et al. 2025).

B1: X-ray repair cross-complementing protein 6, residues 558 to 609; numbered along this chain, P12956 (parent)
chain: EYSEEELKTHISKGTLGKFTVPMLKEACRAYGLKSGLKKQELLEALTKHFQD

Variants of: B1
Experiment: abundance fitness (aPCA) (normalised: wild type 0, dead -1); higher = more abundant; growth selection in yeast, the domain comes from the species named
Conditions: Homo sapiens
In the case of EYSEEELKTHISKGTLGKFTVPMLKEACRAYGLKSGLKKQELLSALTKHFQD, the abundance fitness is reported as -0.149 ± 0.051.
Variant EYSEEELKTHISKGTLGKFTVPMLKEACRAYGLKSGLKKQELIEALTKHFQD has an abundance fitness of -0.118 ± 0.13.
Variant EYSEEELKTHISKGTLGKFTVPMLKEACRAYGLKSGLKKQELKEALTKHFQD has an abundance fitness of -0.516 ± 0.16.
Work on EYSEEELKTHISKGTLGKFTVPMLKEACRAYGLKSGLKKQELHEALTKHFQD yielded an abundance fitness of -0.506 ± 0.074.
EYSEEELKTHISKGTLGKFTVPMLKEACRAYGLKSGLKKQELYEALTKHFQD showed an abundance fitness of -0.727 ± 0.19.
Work on EYSEEELKTHISKGTLGKFTVPMLKEACRAYGLKSGLKKQELMEALTKHFQD yielded an abundance fitness of 0.062 ± 0.061.
EYSEEELKTHISKGTLGKFTVPMLKEACRAYGLKSGLKKQELWEALTKHFQD showed an abundance fitness of -0.436 ± 0.082.
EYSEEELKTHISKGTLGKFTVPMLKEACRAYGLKSGLKKQELQEALTKHFQD gave an abundance fitness of 0.128 ± 0.1.
Variant EYSEEELKTHISKGTLGKFTVPMLKEACRAYGLKSGLKKQELAEALTKHFQD has an abundance fitness of -0.255 ± 0.044.
With EYSEEELKTHISKGTLGKFTVPMLKEACRAYGLKSGLKKQELVEALTKHFQD the abundance fitness was 0.058 ± 0.048.
Variant EYSEEELKTHISKGTLGKFTVPMLKEACRAYGLKSGLKKQELEEALTKHFQD has an abundance fitness of -0.093 ± 0.079.
With EYSEEELKTHISKGTLGKFTVPMLKEACRAYGLKSGLKKQELCEALTKHFQD the abundance fitness was -0.281 ± 0.097.
EYSEEELKTHISKGTLGKFTVPMLKEACRAYGLKSGLKKQELREALTKHFQD showed an abundance fitness of -0.396 ± 0.059.
EYSEEELKTHISKGTLGKFTVPMLKEACRAYGLKSGLKKQELPEALTKHFQD showed an abundance fitness of -0.711 ± 0.32.
EYSEEELKTHISKGTLGKFTVPMLKEACRAYGLKSGLKKQELTEALTKHFQD gave an abundance fitness of -0.243 ± 0.063.
EYSEEELKTHISKGTLGKFTVPMLKEACRAYGLKSGLKKQELNEALTKHFQD showed an abundance fitness of -0.418 ± 0.15.
For EYSEEELKTHISKGTLGKFTVPMLKEACRAYGLKSGLKKQELSEALTKHFQD, the abundance fitness was -0.52 ± 0.093.
EYSEEELKTHISKGTLGKFTVPMLKEACRAYGLKSGLKKQELDEALTKHFQD showed an abundance fitness of -0.932 ± 0.24.
For EYSEEELKTHISKGTLGKFTVPMLKEACRAYGLKSGLKKMELLEALTKHFQD, the abundance fitness was -0.004 ± 0.072.
Work on EYSEEELKTHISKGTLGKFTVPMLKEACRAYGLKSGLKKWELLEALTKHFQD yielded an abundance fitness of -0.155 ± 0.043.
Variant EYSEEELKTHISKGTLGKFTVPMLKEACRAYGLKSGLKKPELLEALTKHFQD has an abundance fitness of -0.322 ± 0.1.
With EYSEEELKTHISKGTLGKFTVPMLKEACRAYGLKSGLKKTELLEALTKHFQD the abundance fitness was -0.006 ± 0.068.
Work on EYSEEELKTHISKGTLGKFTVPMLKEACRAYGLKSGLKKNELLEALTKHFQD yielded an abundance fitness of -0.009 ± 0.096.
Variant EYSEEELKTHISKGTLGKFTVPMLKEACRAYGLKSGLKKHELLEALTKHFQD has an abundance fitness of 0.017 ± 0.1.
For EYSEEELKTHISKGTLGKFTVPMLKEACRAYGLKSGLKKKELLEALTKHFQD, the abundance fitness was -0.06 ± 0.071.
Work on EYSEEELKTHISKGTLGKFTVPMLKEACRAYGLKSGLKKRELLEALTKHFQD yielded an abundance fitness of -0.111 ± 0.056.
EYSEEELKTHISKGTLGKFTVPMLKEACRAYGLKSGLKKGELLEALTKHFQD gave an abundance fitness of -0.098 ± 0.047.
EYSEEELKTHISKGTLGKFTVPMLKEACRAYGLKSGLKKYELLEALTKHFQD gave an abundance fitness of -0.262 ± 0.089.
With EYSEEELKTHISKGTLGKFTVPMLKEACRAYGLKSGLKKLELLEALTKHFQD the abundance fitness was -0.335 ± 0.049.
Work on EYSEEELKTHISKGTLGKFTVPMLKEACRAYGLKSGLKKSELLEALTKHFQD yielded an abundance fitness of 0.101 ± 0.062.
In the case of EYSEEELKTHISKGTLGKFTVPMLKEACRAYGLKSGLKKIELLEALTKHFQD, the abundance fitness is reported as -0.087 ± 0.077.
EYSEEELKTHISKGTLGKFTVPMLKEACRAYGLKSGLKKVELLEALTKHFQD gave an abundance fitness of -0.056 ± 0.053.
In the case of EYSEEELKTHISKGTLGKFTVPMLKEACRAYGLKSGLKKQLLLEALTKHFQD, the abundance fitness is reported as -0.346 ± 0.058.
In the case of EYSEEELKTHISKGTLGKFTVPMLKEACRAYGLKSGLKKQQLLEALTKHFQD, the abundance fitness is reported as -0.16 ± 0.08.
In the case of EYSEEELKTHISKGTLGKFTVPMLKEACRAYGLKSGLKKQNLLEALTKHFQD, the abundance fitness is reported as -0.245 ± 0.089.
For EYSEEELKTHISKGTLGKFTVPMLKEACRAYGLKSGLKKQCLLEALTKHFQD, the abundance fitness was -0.296 ± 0.047.
Variant EYSEEELKTHISKGTLGKFTVPMLKEACRAYGLKSGLKKQDLLEALTKHFQD has an abundance fitness of -0.083 ± 0.065.
EYSEEELKTHISKGTLGKFTVPMLKEACRAYGLKSGLKKQVLLEALTKHFQD showed an abundance fitness of -0.506 ± 0.043.
With EYSEEELKTHISKGTLGKFTVPMLKEACRAYGLKSGLKKQGLLEALTKHFQD the abundance fitness was -0.34 ± 0.042.
EYSEEELKTHISKGTLGKFTVPMLKEACRAYGLKSGLKKQSLLEALTKHFQD gave an abundance fitness of -0.424 ± 0.048.
Work on EYSEEELKTHISKGTLGKFTVPMLKEACRAYGLKSGLKKQKLLEALTKHFQD yielded an abundance fitness of -0.506 ± 0.083.
For EYSEEELKTHISKGTLGKFTVPMLKEACRAYGLKSGLKKQFLLEALTKHFQD, the abundance fitness was -0.59 ± 0.052.
For EYSEEELKTHISKGTLGKFTVPMLKEACRAYGLKSGLKKQALLEALTKHFQD, the abundance fitness was -0.296 ± 0.046.
In the case of EYSEEELKTHISKGTLGKFTVPMLKEACRAYGLKSGLKKQHLLEALTKHFQD, the abundance fitness is reported as -0.518 ± 0.1.
In the case of EYSEEELKTHISKGTLGKFTVPMLKEACRAYGLKSGLKKQWLLEALTKHFQD, the abundance fitness is reported as -0.826 ± 0.062.
Work on EYSEEELKTHISKGTLGKFTVPMLKEACRAYGLKSGLKKQMLLEALTKHFQD yielded an abundance fitness of -0.294 ± 0.063.
Variant EYSEEELKTHISKGTLGKFTVPMLKEACRAYGLKSGLKKQPLLEALTKHFQD has an abundance fitness of -0.808 ± 0.083.
Variant EYSEEELKTHISKGTLGKFTVPMLKEACRAYGLKSGLKKQYLLEALTKHFQD has an abundance fitness of -0.338 ± 0.077.
With EYSEEELKTHISKGTLGKFTVPMLKEACRAYGLKSGLKKQRLLEALTKHFQD the abundance fitness was -0.576 ± 0.042.
Variant EYSEEELKTHISKGTLGKFTVPMLKEACRAYGLKSGLKKQILLEALTKHFQD has an abundance fitness of -0.694 ± 0.056.

± gives the uncertainty stated by the source.
